Data taken from patent US12171806B2, “Therapeutic regimens and methods for lowering blood glucose and/or body weight using GLP-1R and GCGR balanced agonists” (priority 2021, dated 2024).

Experiment: Phase 1 MAD study of ALT-801: adverse events (TEAEs), safety overview
Conditions: Overall (N = 27)

CC[C@H](C)[C@H](NC(=O)[C@H](Cc1ccccc1)NC(=O)[C@H](CCC(=O)O)NC(=O)[C@@H]1CCCCNC(=O)CC[C@H](NC(=O)[C@H](CC(=O)O)NC(=O)[C@H](CC(C)C)NC(=O)[C@H](Cc2ccc(O)cc2)NC(=O)[C@H](CCCCN)NC(=O)[C@H](CO)NC(=O)[C@H](Cc2ccc(O)cc2)NC(=O)[C@H](CC(=O)O)NC(=O)[C@H](CO)NC(=O)[C@@H](NC(=O)[C@H](Cc2ccccc2)NC(=O)[C@@H](NC(=O)CNC(=O)[C@H](CCC(N)=O)NC(=O)C(C)(C)NC(=O)[C@@H](N)Cc2c[nH]cn2)[C@@H](C)O)[C@@H](C)O)C(=O)N[C@@H](CCCCNC(=O)[C@H]2O[C@@H](OCCCCCCCCCCCCCCCCCC(=O)O)[C@H](O)[C@@H](O)[C@@H]2O)C(=O)N[C@@H](C)C(=O)N[C@@H](C)C(=O)N1)C(=O)N[C@@H](CCC(N)=O)C(=O)N[C@@H](Cc1c[nH]c2ccccc12)C(=O)N[C@@H](CC(C)C)C(=O)N[C@@H](CC(C)C)C(=O)N[C@@H](CCC(N)=O)C(=O)N[C@H](C(N)=O)[C@@H](C)O [ALT-801, pemvidutide]
TEAE Dyspepsia; Mild; %: (3.7%) | TEAE Dyspepsia; Mild; n: 1 | TEAE Dyspepsia; Moderate; %: (0.0%) | TEAE Dyspepsia; Moderate; n: 0 | TEAE Dyspepsia; PLT; %: (0.0%) | TEAE Dyspepsia; PLT; n: 0 | TEAE Dyspepsia; Severe; %: (0.0%) | TEAE Dyspepsia; Severe; n: 0 | TEAE Early satiety; Mild; %: (3.7%) | TEAE Early satiety; Mild; n: 1 | TEAE Early satiety; Moderate; %: (0.0%) | TEAE Early satiety; Moderate; n: 0 | TEAE Early satiety; PLT; %: (0.0%) | TEAE Early satiety; PLT; n: 0 | TEAE Early satiety; Severe; %: (0.0%) | TEAE Early satiety; Severe; n: 0 | TEAE Eye disorders; Mild; %: (3.7%) | TEAE Eye disorders; Mild; n: 1 | TEAE Eye disorders; Moderate; %: (0.0%) | TEAE Eye disorders; Moderate; n: 0 | TEAE Eye disorders; PLT; %: (0.0%) | TEAE Eye disorders; PLT; n: 0 | TEAE Eye disorders; Severe; %: (0.0%) | TEAE Eye disorders; Severe; n: 0 | TEAE Eye pain; Mild; %: (3.7%) | TEAE Eye pain; Mild; n: 1 | TEAE Eye pain; Moderate; %: (0.0%) | TEAE Eye pain; Moderate; n: 0 | TEAE Eye pain; PLT; %: (0.0%) | TEAE Eye pain; PLT; n: 0 | TEAE Eye pain; Severe; %: (0.0%) | TEAE Eye pain; Severe; n: 0 | TEAE Fatigue; Mild; %: (7.4%) | TEAE Fatigue; Mild; n: 2 | TEAE Fatigue; Moderate; %: (0.0%) | TEAE Fatigue; Moderate; n: 0 | TEAE Fatigue; PLT; %: (0.0%) | TEAE Fatigue; PLT; n: 0 | TEAE Fatigue; Severe; %: (0.0%) | TEAE Fatigue; Severe; n: 0 | TEAE Food poisoning; Mild; %: (0.0%) | TEAE Food poisoning; Mild; n: 0 | TEAE Food poisoning; Moderate; %: (3.7%) | TEAE Food poisoning; Moderate; n: 1 | TEAE Food poisoning; PLT; %: (0.0%) | TEAE Food poisoning; PLT; n: 0 | TEAE Food poisoning; Severe; %: (0.0%) | TEAE Food poisoning; Severe; n: 0 | TEAE Fungal infection; Mild; %: (3.7%) | TEAE Fungal infection; Mild; n: 1 | TEAE Fungal infection; Moderate; %: (0.0%) | TEAE Fungal infection; Moderate; n: 0 | TEAE Fungal infection; PLT; %: (0.0%) | TEAE Fungal infection; PLT; n: 0 | TEAE Fungal infection; Severe; %: (0.0%) | TEAE Fungal infection; Severe; n: 0 | TEAE Fungal skin; Mild; %: (3.7%) | TEAE Fungal skin; Mild; n: 1 | TEAE Gastrointestinal disorders; Mild; %: (40.7%) | TEAE Gastrointestinal disorders; Mild; n: 11 | TEAE Gastrointestinal disorders; Moderate; %: (33.3%) | TEAE Gastrointestinal disorders; Moderate; n: 9 | TEAE Gastrointestinal disorders; PLT; %: (0.0%) | TEAE Gastrointestinal disorders; PLT; n: 0 | TEAE Gastrointestinal disorders; Severe; %: (0.0%) | TEAE Gastrointestinal disorders; Severe; n: 0 | TEAE Haematemesis; Mild; %: (3.7%) | TEAE Haematemesis; Mild; n: 1 | TEAE Haematemesis; Moderate; %: (0.0%) | TEAE Haematemesis; Moderate; n: 0 | TEAE Haematemesis; PLT; %: (0.0%) | TEAE Haematemesis; PLT; n: 0 | TEAE Haematemesis; Severe; %: (0.0%) | TEAE Haematemesis; Severe; n: 0 | TEAE Infections and infestations; Mild; %: (25.9%) | TEAE Infections and infestations; Mild; n: 7 | TEAE Infections and infestations; Moderate; %: (0.0%) | TEAE Infections and infestations; Moderate; n: 0 | TEAE Infections and infestations; PLT; %: (0.0%) | TEAE Infections and infestations; PLT; n: 0 | TEAE Infections and infestations; Severe; %: (0.0%) | TEAE Infections and infestations; Severe; n: 0 | TEAE Injection site bruising; Mild; %: (3.7%) | TEAE Injection site bruising; Mild; n: 1 | TEAE Injection site bruising; Moderate; %: (0.0%) | TEAE Injection site bruising; Moderate; n: 0 | TEAE Injection site bruising; PLT; %: (0.0%) | TEAE Injection site bruising; PLT; n: 0 | TEAE Injection site bruising; Severe; %: (0.0%) | TEAE Injection site bruising; Severe; n: 0
